Laboratory results reported in ChEMBL document CHEMBL3886179, “Substituted 6, 7-dialkoxy-3-isoquinoline derivatives as inhibitors of phosphodiesterase 10 (PDE 10A)” (2015).

Chains of the proteins cited; added tags and fusions are not shown. Lines headed by an entry give the natural chain unless they say otherwise; changes in a name come on top.
UniProt Q9Y233: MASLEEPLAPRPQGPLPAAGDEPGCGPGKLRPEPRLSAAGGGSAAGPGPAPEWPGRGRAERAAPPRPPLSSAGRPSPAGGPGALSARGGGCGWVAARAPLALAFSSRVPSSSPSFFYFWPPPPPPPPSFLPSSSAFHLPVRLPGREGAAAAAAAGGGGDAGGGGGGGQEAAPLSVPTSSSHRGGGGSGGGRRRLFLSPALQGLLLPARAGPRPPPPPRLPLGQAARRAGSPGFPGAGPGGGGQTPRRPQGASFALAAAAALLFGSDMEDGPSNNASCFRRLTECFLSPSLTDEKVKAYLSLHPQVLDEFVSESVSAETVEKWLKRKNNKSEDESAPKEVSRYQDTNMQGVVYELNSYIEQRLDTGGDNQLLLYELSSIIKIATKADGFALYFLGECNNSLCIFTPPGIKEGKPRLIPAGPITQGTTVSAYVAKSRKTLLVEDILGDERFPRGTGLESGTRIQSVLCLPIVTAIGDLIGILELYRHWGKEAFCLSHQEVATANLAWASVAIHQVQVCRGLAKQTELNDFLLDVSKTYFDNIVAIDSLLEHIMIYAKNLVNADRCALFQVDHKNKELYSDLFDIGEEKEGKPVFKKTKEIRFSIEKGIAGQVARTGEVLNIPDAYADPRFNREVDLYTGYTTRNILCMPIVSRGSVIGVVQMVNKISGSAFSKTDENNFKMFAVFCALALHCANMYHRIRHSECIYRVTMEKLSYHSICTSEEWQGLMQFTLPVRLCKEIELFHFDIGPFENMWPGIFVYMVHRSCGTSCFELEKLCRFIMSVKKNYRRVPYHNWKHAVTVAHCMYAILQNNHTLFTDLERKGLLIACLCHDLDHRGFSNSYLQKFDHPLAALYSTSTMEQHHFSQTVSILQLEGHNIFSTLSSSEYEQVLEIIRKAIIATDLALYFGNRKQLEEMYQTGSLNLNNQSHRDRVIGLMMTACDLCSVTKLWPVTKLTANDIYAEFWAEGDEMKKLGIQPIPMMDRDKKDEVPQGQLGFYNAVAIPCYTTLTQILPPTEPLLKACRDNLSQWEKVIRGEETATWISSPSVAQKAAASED

Biological target: cAMP and cAMP-inhibited cGMP 3',5'-cyclic phosphodiesterase 10A (Homo sapiens, UniProt Q9Y233)
Assay: Diaxonhit Phosphodiesterase Assay: The phosphodiesterase assay was developed using the LANCE cAMP kit (PerkinElmer). The assay buffer contained HBSS with 5 mM HEPES, 0.1% BSA, and 1.5 mM MgCl2, pH 7.4. PDE10A (BPS Bioscience) was used at 200 pg/well (with a specific activity of 3200 pmole/min/ug with assay conditions: 10 mM Tris-HCl, pH 7.4, 10 mM MgCl2, 1 mM MnCl2, 200 uM cAMP, 2.5 kU 5' nucleotidase, 37° C., 20 min) and PDE4D3 (BPS Bioscience) was used at 100 pg/well (with a specific activity of 32713 pmole/min/ug with assay conditions: 10 mM Tris-HCl, pH 7.4, 10 mM MgCl2, 1 mM MnCl2, 200 uM cAMP, 2.5 kU 5' nucleotidase, 37° C., 20 min). The Biotin-cAMP tracer, supplied in 10 mmol/L Tris-HCl buffered (pH 8.0) salt solution with 1 mmol/L ethylenediaminetetraacetic acid (EDTA), 0.1% bovine serum albumin (BSA), and 0.05% sodium azide, is used at a dilution of 1/375. The assay detection mixture contained the LANCE Eu-W8044 labeled streptavidin 1/2250 (supplied in 50 mmol/L Tris-HCl buffer).

IC50: 20 nM
Structure (SMILES): COc1cc2c(Cc3cnc4ccccc4c3)cnc(CC(C)C)c2cc1OC
